The structures appear in SMILES notation. Numbers after ± are expanded uncertainties.

For data set [1] the following is noted: Crystal; DTA.
Data set [2] is described as follows: Molar enthalpy of transition or fusion. The conditions noted are these: Crystal; DSC.

Turning to `O=Cc1ccc([N+](=O)[O-])cc1` [4-nitrobenzaldehyde], in data set [1], the Normal melting temperature was 107.20 ± 1.1 °C. Besides, the “Molar enthalpy of transition or fusion” value in data set [2] is 6 ± 0.239 kcal/mol.
